Assay results published in patent publication US20080207655A1, “Diaminopyrimidines as P2X3 and P2X2/3 modulators” (Roche Palo Alto LLC, priority 2007, published 2008).

Target: T1, rat P2X3 receptor (Rattus norvegicus, UniProt P49654)
T1 construct: expressed in transfected cells; host or cells: CHO-K1
T1 sequence (P49654 1-397): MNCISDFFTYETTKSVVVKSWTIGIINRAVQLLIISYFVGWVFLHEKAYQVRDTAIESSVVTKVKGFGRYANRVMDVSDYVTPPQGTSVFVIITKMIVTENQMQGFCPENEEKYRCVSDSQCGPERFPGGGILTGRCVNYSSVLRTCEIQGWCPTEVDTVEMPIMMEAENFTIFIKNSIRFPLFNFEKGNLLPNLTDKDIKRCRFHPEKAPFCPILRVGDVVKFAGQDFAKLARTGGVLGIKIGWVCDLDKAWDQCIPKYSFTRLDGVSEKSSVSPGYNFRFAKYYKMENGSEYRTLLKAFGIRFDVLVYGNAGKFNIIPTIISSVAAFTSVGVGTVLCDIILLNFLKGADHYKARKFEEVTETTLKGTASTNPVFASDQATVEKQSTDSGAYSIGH
Assay: P2X3 FLIPR (Fluorometric Imaging Plate Reader) assay, CHO-K1 cells, α,β-meATP-evoked calcium fluorescence
Type: cell-based
Settings: agonist α,β-meATP 1 μM, read-out: pIC50 for the P2X3 receptor (converted)
Experimental: CHO-K1 cells were transfected with cloned rat P2X3 or human P2X2/3 receptor subunits and passaged in flasks. 18-24 hours before the FLIPR experiment, cells were released from their flasks, centrifuged, and resuspended in nutrient medium at 2.5×10^5 cells/ml. The cells were aliquoted into black-walled 96-well plates at a density of 50,000 cells/well and incubated overnight in 5% CO2 at 37° C. On the day of the experiment, cells were washed in FLIPR buffer (calcium- and magnesium-free Hank's balanced salt solution, 10 mM HEPES, 2 mM CaCl2, 2.5 mM probenecid; FB). Each well received 100 μl FB and 100 μl of the fluorescent dye Fluo-3 AM [2 μM final conc.]. […]
Test compounds (dissolved in DMSO at 10 mM and serially diluted with FB) or vehicle were added to each well (25 μl of a 4× solution) and allowed to equilibrate for 20 minutes at room temperature. […] Fluorescence was measured for an additional 2 minutes at 1 second intervals after agonist addition. A final addition of ionomycin (5 μM, final concentration) was made to each well of the FLIPR test plate to establish cell viability and maximum fluorescence of dye-bound cytosolic calcium. Peak fluorescence in response to the addition of α,β-meATP (in the absence and presence of test compounds) was measured and inhibition curves generated using nonlinear regression. […]

With COc1cc(C(C)C)c(Oc2cnc(NC(CO)CO)nc2N)cc1I [1a, 2-[4-Amino-5-(5-iodo-2-isopropyl-4-methoxy-phenoxy)-pyrimidin-2-ylamino]-propane-1,3-diol] the IC50 was 2.95 nM.
